Test results reported in publication PMC3052287 (Psychopharmacology, 2010).

Chains of the proteins cited; added tags and fusions are not shown.
UniProt P34969, whole entry: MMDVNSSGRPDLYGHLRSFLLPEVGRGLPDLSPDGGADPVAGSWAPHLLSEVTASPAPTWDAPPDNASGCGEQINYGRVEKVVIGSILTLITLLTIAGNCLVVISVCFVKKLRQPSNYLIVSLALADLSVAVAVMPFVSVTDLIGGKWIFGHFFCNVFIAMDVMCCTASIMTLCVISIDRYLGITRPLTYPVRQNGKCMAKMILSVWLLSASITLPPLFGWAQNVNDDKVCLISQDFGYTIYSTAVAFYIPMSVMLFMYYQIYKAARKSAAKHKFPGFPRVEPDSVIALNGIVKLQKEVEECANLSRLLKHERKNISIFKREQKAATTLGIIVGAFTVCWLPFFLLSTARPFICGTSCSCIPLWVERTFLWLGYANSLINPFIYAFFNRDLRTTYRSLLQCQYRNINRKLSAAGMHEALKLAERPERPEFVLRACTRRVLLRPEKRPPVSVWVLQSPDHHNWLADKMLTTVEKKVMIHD

Biological target: h5-HT7 receptor (Homo sapiens, UniProt P34969)

## [^3H]risperidone
Estimated from homologous competition curve data
  Bmax: 3,300 fmol/mg protein
Intact cells, 1 nM radioligand
  absolute level of binding: 1,200 fmol/mg
Intact cells, 1 nM radioligand, thorough washing
  wash-resistant (pseudo-irreversibly bound) share of specific binding: ~ 50%
Preliminary studies, TCA precipitates the receptor
  release of wash-resistant bound radioligand by TCA: could be released by treatment with TCA
